Bioassay records deposited in PubChem by several laboratories.
In the library only some 0.94% were active in any assay of this set; here they are far more common.
Yeast UUG start = modulators of yeast start codon fidelity, primary screen, whole organism, S. cerevisiae, single point, plate reader | AID 602363, 2012 | actives 0.13% (n = 350,000) | activity score, % at 18.7 µM | S. cerevisiae UUG-firefly luciferase reporter, luminescence/redox ratio;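 active means replicate mean at a twofold rise or more, about +100% in these data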;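 further: firefly luciferase made from a UUG start codon reports start codon fidelity; reporter light over untreated wells divided by growth signal over untreated wells; some hits fall short of that in this replicate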
ABCB6 inh MLPCN = ABCB6 transporter inhibitors, primary screen, K562-ABCB6 cells, flow cytometry, MLPCN library; ATP-binding cassette sub-family B member 6 (Homo sapiens), Q9NP58; K562-ABCB6 porphyrin accumulation, 1 h; stronger effect = lower value; fluorescence ratio to DMSO, % at 10 µM; 360,000 compounds, 0.19% hits;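 active means fluorescence ratio to DMSO below 75%, the collection mean minus 3 SD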;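 further: signal is porphyrin accumulated inside mitochondria; 100% equals median channel fluorescence of DMSO control wells; lower ratio means ABCB6 inhibition with less porphyrin fluorescence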
PKA-R1A act = activators of PKA-R1A holoenzyme, primary screen, biochemical, fluorescence polarization, Cy5-IP20, bovine R1A, mouse PKAc. AID 504707, 2011. activation, % at 11.4 µM. 340,000 compounds, 0.083% hits. PKA-R1A dissociation; scaled: DMSO 0%, 113 µM cGMP 100%;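 active means percent activation above the mean of all tested compounds plus 3 SD, cut at about 19% in these data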;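 further: higher means more PKAc released from R1A so a rise in polarization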
PKA-R2B act = activators of PKA-R2B holoenzyme, primary screen, biochemical, fluorescence polarization, Cy5-IP20, human. cAMP-dependent protein kinase catalytic subunit beta (Homo sapiens) + cAMP-dependent …. PKA-R2B holoenzyme dissociation; R2B truncated from residue 108, S112A mutant; 0% DMSO only, 100% 113 µM cGMP. activation, % at 11.4 µM. 340,000 compounds, 0.079% hits. AID 504700, 2011;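 active means activation above a cutoff set at the mean over all compounds plus 3 SD, cut at about 18% in these data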;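 further: higher means more holoenzyme dissociation and a rise in polarization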
Granule exo inh = LAMP-1 surface exposure blockers, TALL-104 cells – cell-based, flow cytometry, MLPCN library, primary screen; inhibition, % at 10 µM; AID 651702, 2012; 360,000 compounds, 0.66% hits; TALL-104 LAMP-1 surface exposure; cells stimulated with thapsigargin and PMA;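 active means inhibition above about 55%, limit read from the data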
pCIP destab = p/CIP-EGFP fusion destabilizers, primary screen, fluorescence, F442A cells | Q05BA5 | 16 h | decrease of EGFP signal, % at 10 µM | 290,000 compounds, 0.01% hits;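 active means EGFP signal decrease of at least 30% at 10 µM or well 3 SD below plate mean, unless failing retest; inactive means the rest, including hits failing retest or dose response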
R2B FP artifact = fluorescence polarization artefacts, biochemical, artefact control for PKA-R2B activator project. shares compounds with PKA-R2B act. FP artifact counterscreen. activation, % at 11.4 µM. 270 compounds, 6% hits. AID 504796, 2011; in the data active means activation above about 20%;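 further: Cy5 labelled IP20 peptide probe with compound but no PKA protein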
PKA-R2B confirm = activators of PKA-R2B holoenzyme, confirmation, biochemical, fluorescence polarization, human | PKA-R2B complex, activation | 270 compounds, 9% hits | shares compounds with PKA-R2B act | AID 504797, 2011 | activation, % at 11.4 µM; in the data active means activation above about 19%
* hit, by the source's call; · = not tested or not shown.

SMILES | Yeast UUG start | ABCB6 inh MLPCN | PKA-R1A act | PKA-R2B act | Granule exo inh | pCIP destab | R2B FP artifact | PKA-R2B confirm
COc1ccc(OC)c(-c2nnc3n2N=C(c2ccc(OC)c(OC4CCOC4)c2)CS3)c1 (stereo not drawn) | -19 | 98 | 1 | 19* | 19 | · | -1 | -3
CC(=O)Nc1ccc(S(=O)(=O)NNC(=O)COc2cc(C)ccc2C(C)C)cc1 | 4 | 105 | 7 | 20* | 1 | 5 | 3 | 0
Oc1ccc(/C=N/Nc2ncnc3nc[nH]c23)cc1 | -28 | 92 | -4 | 22* | -5 | -5 | 2 | -5
CCN1CCCC1CN(Cc1cc2cc(C)ccc2[nH]c1=O)C(=O)Nc1ccccc1OC (stereo not drawn) | · | 105 | 0 | 19* | 4 | -20 | 1 | 2
COc1ccccc1NC(=O)N(CCN1CCCC1)Cc1cc2cc(C)ccc2[nH]c1=O | -5 | 101 | 6 | 2 | 1 | · | · | ·
C[C@@H]1CCCCO[C@@H](CN(C)C)[C@@H](C)CN([C@@H](C)CO)C(=O)c2cc(NS(=O)(=O)c3ccccc3)ccc2O1 | 0 | · | · | · | · | · | · | ·
Cc1nc(C)c(C(=O)N(c2ccccc2F)C(C(=O)NCC2CCCO2)c2ccccc2)s1 (stereo not drawn) | -1 | 93 | 4 | 10 | -2 | -14 | · | ·
Cc1nc(C)c(C(=O)N(c2ccc(F)cc2)C(C(=O)NCC2CCCO2)c2ccccc2)s1 (stereo not drawn) | -6 | 101 | -5 | 20* | -2 | -5 | -1 | -4
CCC(=O)N(C)C[C@@H]1Oc2ncc(-c3ccccc3F)cc2C(=O)N([C@@H](C)CO)C[C@@H]1C | -1 | · | · | · | · | · | · | ·
C[C@H](CO)N1C[C@H](C)[C@H](CN(C)C)Oc2c(NC(=O)c3ccncc3)cccc2C1=O | -12 | · | · | · | · | · | · | ·
C[C@H]1CN([C@@H](C)CO)S(=O)(=O)c2ccc(-c3cccc(C#N)c3)cc2O[C@H]1CN(C)Cc1cccc(F)c1 | 1 | · | · | · | · | · | · | ·
C[C@@H]1CCCCO[C@H](CN(C)C(=O)Cc2ccccc2)[C@@H](C)CN([C@H](C)CO)C(=O)c2cc(NC(=O)NC3CCCCC3)ccc2O1 | 12 | · | · | · | · | · | · | ·
O=C(c1cc(F)c(F)cc1Cl)N1CCN(c2ncccn2)CC1 | -11 | 98 | -8 | 19* | -4 | -5 | 0 | -2
Cc1ccsc1CNC1CCCCC1 | -13 | 100 | 0 | -2 | -2 | -8 | · | ·
Cc1ccsc1CNC12CC3CC(CC(C3)C1)C2 | · | 101 | -13 | 21* | 0 | -3 | 2 | 4
O=C(CCN1CCCCC1)NCC[C@@H]1CC[C@H](NC(=O)c2ccc(F)cc2)[C@@H](CO)O1 | 12 | · | · | · | · | · | · | ·
CCNC(=O)N1CCN(CCCC(c2ccc(F)cc2)c2ccc(F)cc2)CC1 | -18 | 101 | -1 | 0 | 5 | · | · | ·
OC(CCCN1CCC(O)(c2ccc(Cl)cc2)CC1)c1ccc(F)cc1 (stereo not drawn) | -11 | 91 | 2 | 19* | -4 | -7 | 6 | 2
CC1C(=O)Nc2ccccc2N1C(=O)c1ccccc1 (stereo not drawn) | · | 96 | -5 | 20* | 0 | 7 | 6 | 1
COc1ccc(CN(C)C[C@H]2OCCCC[C@H](C)Oc3ccc(NC(=O)CCCN(C)C)cc3C(=O)N([C@H](C)CO)C[C@H]2C)cc1 | 24 | · | · | · | · | · | · | ·
Cc1ccccc1NS(=O)(=O)c1cc(S(C)(=O)=O)ccc1C | · | 97 | 0 | 19* | 11 | 2 | 3 | 3
CCOC(=O)C1CCN(C(=O)c2cc(COc3ccc(F)cc3F)on2)CC1 | -3 | 100 | 11 | 20* | -4 | -1 | 3 | 6
CCOC(=O)N1CCN(C(=O)c2cc(COc3ccc(F)cc3F)on2)CC1 | 1 | 99 | -1 | 1 | -5 | -15 | · | ·
C=CCNc1nc2c(c(=O)[nH]c(=O)n2C)n1Cc1cccc(C)c1 | -29 | 99 | 10 | 22* | 0 | 5 | 2 | 5
CCc1cc2c(=O)n(CC(=O)NC3CCCCC3)cnc2s1 | 9 | 98 | 9 | 19* | 1 | 3 | -1 | 1

Complete entries, looked up by structure. Order of values: Yeast UUG start	ABCB6 inh MLPCN	PKA-R1A act	PKA-R2B act	Granule exo inh	pCIP destab	R2B FP artifact	PKA-R2B confirm
`Cc1ccccc1NS(=O)(=O)c1cc(S(C)(=O)=O)ccc1C` as listed: ·	97	0	19*	11	2	3	3
`CCOC(=O)N1CCN(C(=O)c2cc(COc3ccc(F)cc3F)on2)CC1` as listed: 1	99	-1	1	-5	-15	·	·
`O=C(CCN1CCCCC1)NCC[C@@H]1CC[C@H](NC(=O)c2ccc(F)cc2)[C@@H](CO)O1` as listed: 12	·	·	·	·	·	·	·

Returning to the listing, starting 2 compounds before the break.
SMILES | Yeast UUG start | ABCB6 inh MLPCN | PKA-R1A act | PKA-R2B act | Granule exo inh | pCIP destab | R2B FP artifact | PKA-R2B confirm
C=CCNc1nc2c(c(=O)[nH]c(=O)n2C)n1Cc1cccc(C)c1 | -29 | 99 | 10 | 22* | 0 | 5 | 2 | 5
CCc1cc2c(=O)n(CC(=O)NC3CCCCC3)cnc2s1 | 9 | 98 | 9 | 19* | 1 | 3 | -1 | 1
C[C@H](CO)N1C[C@H](C)[C@@H](CN(C)C(=O)Nc2ccc3c(c2)OCO3)OCCCC[C@H](C)Oc2ccc(NS(C)(=O)=O)cc2C1=O | -4 | · | · | · | · | · | · | ·
O=c1[nH]nc(SCc2nnc(-c3cccc(Cl)c3)o2)n1C1CCCCC1 | 4 | 95 | -7 | 19* | 0 | -17 | 3 | 1
COc1ccc(-c2nnc(CSc3nnc(-c4ccncc4)n3C3CCCCC3)o2)cc1OC | -5 | 96 | -4 | 2 | -2 | -11 | · | ·
C[C@@H]1CN([C@@H](C)CO)C(=O)c2cc(NC(=O)Nc3ccc(F)cc3)ccc2O[C@H]1CN(C)Cc1ccc(C(F)(F)F)cc1 | 6 | · | · | · | · | · | · | ·
CC(C)(C)C(=O)Nc1nc(C2CCCN2S(=O)(=O)c2ccc(Cl)cc2)cs1 (stereo not drawn) | · | 103 | 2 | 19* | 0 | -13 | -1 | 1
O=C(COC(=O)COc1ccc(Cl)cc1)Nc1ccc2c(c1)OCCO2 | -10 | 104 | 1 | 19* | -1 | · | 3 | 4
Cc1cc(NCCN2CCOCC2)n2nc(C)c(-c3ccccc3)c2n1 | -14 | 100 | -13 | -11 | -1 | 0 | · | ·
Cc1cc(C)c2c(n1)nn1c(NCCN3CCOCC3)cc(C)nc21 | -15 | 99 | 11 | 18* | -2 | 6 | 2 | 0
N#Cc1nc(-c2cccs2)oc1NCC1CCCO1 (stereo not drawn) | 3 | 98 | 3 | 19* | 2 | 6 | 1 | 1
CCC(=O)Nc1ccccc1N1CCN(c2ccc(F)cc2)CC1 | -19 | 97 | -3 | 19* | -2 | 13 | 2 | 3
O=C(CCSCCC(=O)NCC1CCCO1)NCC1CCCO1 (stereo not drawn) | · | 98 | -2 | 20* | -9 | -4 | 4 | 0
O=C(CCSc1ccccc1)NCC1CCCO1 (stereo not drawn) | -16 | 97 | -9 | 5 | 3 | 3 | · | ·
